pIC50: −log10 of the molar value.
Target: ATIC (AICARFT) (Homo sapiens, UniProt P31939)
Assay: Folate dependent enzyme assay, conversion of ZMP to IMP (LC-MS)
Assay type: biochemical
From the text: Human ATIC (accession number: NM_004044.6) cDNA was purchased from Openbiosystem Co. (Cat# MHS1011-62310, Clone ID: 4300570, accession: BC008879). Human TS (accession number: NM_001071.2) cDNA was purchased from Invitrogen (Clone ID: 3138877). Human SHMT (accession number: NM_004169.3) cDNA was purchased from Openbiosystem Co. (Cat# MHS1010-9204609, Clone ID: 4523709, accession: BC038598). Human MTHFD1 (accession number: NM_005956.3) cDNA was purchased from Openbiosystem Co. (Cat# MHS1011-169900, Clone ID: 3508998, accession: BC009806), which contains two mutations and was fixed by PCR-based mutagenesis. The human MTHFD2 (accession number: NM_006636.3) and MTHFD2L (accession number: NM_001144978.1) cDNAs were synthesized at GenScript. The nucleotide sequences encoding full-length human AICARFT, TS, SHMT, MTHFD1, and partial sequences MTHFD2 (32–350) and MTHFD2L (46–347) were inserted into pET21d (Novagen) vector with an N-terminal HIS tag. Bacterial BL21 (DE3) (Novagen) was used as an expression host, and protein purification is described in supplemental material. […]
Catalytic activity was assayed under the listed reaction conditions using a liquid chromatograph and either fluorescence or mass spectrometric detection as indicated. […]

By UniProt entry, the sequences of proteins in these tests, tags left out. Where a name states a change or a piece, a line headed by the entry shows the natural chain unless it says otherwise.
UniProt P31939: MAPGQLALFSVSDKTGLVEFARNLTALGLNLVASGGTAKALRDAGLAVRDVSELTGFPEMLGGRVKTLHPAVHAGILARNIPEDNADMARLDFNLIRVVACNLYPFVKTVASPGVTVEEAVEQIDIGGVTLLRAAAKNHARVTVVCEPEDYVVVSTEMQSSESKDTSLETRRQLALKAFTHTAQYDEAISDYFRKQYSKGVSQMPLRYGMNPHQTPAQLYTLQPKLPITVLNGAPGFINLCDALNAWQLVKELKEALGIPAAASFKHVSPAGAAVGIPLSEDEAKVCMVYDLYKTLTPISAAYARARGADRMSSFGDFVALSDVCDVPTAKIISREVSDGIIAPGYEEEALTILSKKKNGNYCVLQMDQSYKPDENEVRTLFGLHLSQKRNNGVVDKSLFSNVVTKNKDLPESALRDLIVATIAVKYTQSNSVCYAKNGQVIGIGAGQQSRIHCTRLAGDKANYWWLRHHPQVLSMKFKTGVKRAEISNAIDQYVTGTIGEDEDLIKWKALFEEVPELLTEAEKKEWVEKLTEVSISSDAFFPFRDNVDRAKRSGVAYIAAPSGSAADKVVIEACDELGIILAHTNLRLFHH

Compound `O=c1[nH]ccc2cc(F)c(NS(=O)(=O)c3ccc(N4CC[C@@H](O)C4)s3)cc12` [LSN3213128, N-(6-Fluoro-1-oxo-1,2-dihydroisoquinolin-7-yl)-5-[(3R)-3-hydroxypyrrolidin-1-yl]thiophene-2-sulfonamide] has a pIC50 of 7.80.
